Experimental data taken from patent publication EP1611148B1, “NOVEL NITRILE GLYCOSIDE USEFUL AS A BIO-ENHANCER OF DRUGS AND NUTRIENTS, PROCESS OF ITS ISOLATION FROM MORINGA OLEIFERA” (Council of Scientific and Industrial Research, priority 2003, dated 2004).

Key:
E.coli DH5α = assay: Enhancement of bacterial transformation with pUC18 plasmid DNA, strain DH5α; settings: niaziridin @1-10µg/ml for 4 hours
E.coli CA8000 = assay: Enhancement of bacterial transformation with pUC18 plasmid DNA, strain CA8000; settings: niaziridin @1-10µg/ml for 4 hours

niaziridin
increase for transformation (E.coli DH5α): 2.3 folds
increase for transformation (E.coli CA8000): 5.5 folds
